The assay deals with TPP riboswitch RNA. As to the kind of experiment: Isothermal titration calorimetry (ITC), ligand titrated into RNA. The assay is classed as binding. Particulars: fragment 2 analogs, pendant groups, Table 2B. On the technique in general: Isothermal titration calorimetry measures the heat released or taken up as one component is titrated into another.
For `Oc1cccc2nccnc12`, the dissociation constant Kd (usually the concentration at which binding is half-saturated) came to 286 µM.

In turn, `CNCc1ccc2nccnc2c1` came in with a Kd of 12 µM.

`NCc1ccc2nccnc2c1` gave an equilibrium dissociation constant (Kd) of 5 µM.

The values above are taken from patent US20220289688A1, “RNA-TARGETING LIGANDS, COMPOSITIONS THEREOF, AND METHODS OF MAKING AND USING THE SAME” (THE UNIVERSITY OF NORTH CAROLINA AT CHAPEL HILL, priority 2019, published 2022).
